# Source: patent publication US20210364527A1, “Methods and compositions for protein sequencing” (QUANTUM SI, published 2021)
# B1: PS610 (Bis-atClpS2-V1, Linker 2) (designed binder)
# chain: MSDSPVDLKPKPKVKPKLERPKLYKVMLLNDDYTPMSFVTVVLKAVFRMSEDTGRRVMMTAHRFGSAVVVVCERDIAETKAKEATDLGKEAGFPLMFTTEPEEGSAGSAAGSGEFMSDSPVDLKPKPKVKPKLERPKLYKVMLLNDDYTPMSFVTVVLKAVFRMSEDTGRRVMMTAHRFGSAVVVVCERDIAETKAKEATDLGKEAGFPLMFTTEPEEGHHHHHHHHHHGGGSGGGSGGGSGLNDFFEAQKIEWHEGGGSGGGSGGGSGLNDFFEAQKIEWHE
# How the values were obtained:
# [1] = target: T1, N-terminal phenylalanine peptide FAAAYP; assay: peptide-on-chip recognition assay, 500 nM binder
# T1 construct: Immobilized on the chip
# T1 peptide: FAAAYP
# [2] = target: T2, WLVK (GLP-1 fragment EFIAWLVK after cleavage up to W); assay: real-time dynamic sequencing, 100 nM dye-labelled PS610 with hTET and pfuTET
# T2 construct: Degradation intermediate of the immobilized fragment of Glucagon-like peptide 1; the residue range is worked out from 'W recognition'
# T2 peptide: WLVK
# [3] = target: T3, FIAWLVK (GLP-1 fragment EFIAWLVK after removal of the N-terminal E); assay: as above
# T3 construct: Degradation intermediate of the immobilized fragment of Glucagon-like peptide 1; the residue range is worked out from 'F recognition'
# T3 peptide: FIAWLVK
binder,measurement,setting,value
B1,fold faster rate of pulsing against monovalent atClpS2-V1,[1],2.3 fold
same,fold shorter median interpulse duration against monovalent atClpS2-V1,[1],~5.8 fold
same,binding result,[2],binds
same,binding result,[3],binds
